Test results reported in publication PMC8958504 (Journal of Medicinal Chemistry, 2022).

Tested on: mouse hippocampal slices
Settings: 1 μM, OA 1 μM, 6 h

Structure (SMILES): C#CCn1nc(/C=C/c2ccc(OC)cc2)oc1=O [4e, 5-[(E)-2-(4-Methoxyphenyl)ethenyl]-3-(prop-2-yn-1-yl)-1,3,4-oxadiazol-2(3H)-one]
- cell death (PI uptake fluorescence): reduced cell death
